Among the data in ChEMBL document CHEMBL4680278 (J Med Chem, 2020) are Ki values, retold here.

By UniProt entry, the sequences of proteins in these tests, tags left out.
UniProt P34972, whole entry: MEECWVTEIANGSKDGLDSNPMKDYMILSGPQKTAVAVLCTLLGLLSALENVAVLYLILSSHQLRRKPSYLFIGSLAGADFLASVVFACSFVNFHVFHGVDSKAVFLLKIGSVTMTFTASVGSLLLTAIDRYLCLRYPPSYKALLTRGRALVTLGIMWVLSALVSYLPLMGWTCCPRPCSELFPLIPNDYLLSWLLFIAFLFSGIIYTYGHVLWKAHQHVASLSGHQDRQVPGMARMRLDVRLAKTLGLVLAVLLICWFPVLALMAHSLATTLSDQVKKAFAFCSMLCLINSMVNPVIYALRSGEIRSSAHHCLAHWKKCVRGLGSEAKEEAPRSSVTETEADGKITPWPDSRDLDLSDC

The experiment has as its target Cannabinoid receptor 2 (Homo sapiens, UniProt P34972). The experiment is described as follows: Displacement of [3H]-HU-243 from CB2 receptor (unknown origin) expressed in African green monkey Cos7 cell membranes incubated for 90 mins by radioligand binding assay. Set-up: species or system Membrane. (In general: In a radioligand displacement assay an active substance lowers the binding of a labelled ligand.)

Molecules are shown by their SMILES.

A word on the Ki: it is the dissociation constant of the complex between target and ligand, obtained from inhibition or displacement. Molecule `C=C(C)[C@H]1CCC(C)=C[C@@H]1c1c(O)cc(CCCCC)cc1O` yielded a Ki of 203 nM.
